Source: patent publication US5173481A, “Preparation of specifically substituted cyclodextrins” (The United States of America as represented by the …, priority 1990, dated 1992)

solubility in water: > 50%
Substance: Mono(S-2'-Hydroxypropyl)-γ-cyclodextrin [Example 5]
